The chains behind the UniProt entries cited, without tags or fusion partners.
UniProt P18901, whole entry: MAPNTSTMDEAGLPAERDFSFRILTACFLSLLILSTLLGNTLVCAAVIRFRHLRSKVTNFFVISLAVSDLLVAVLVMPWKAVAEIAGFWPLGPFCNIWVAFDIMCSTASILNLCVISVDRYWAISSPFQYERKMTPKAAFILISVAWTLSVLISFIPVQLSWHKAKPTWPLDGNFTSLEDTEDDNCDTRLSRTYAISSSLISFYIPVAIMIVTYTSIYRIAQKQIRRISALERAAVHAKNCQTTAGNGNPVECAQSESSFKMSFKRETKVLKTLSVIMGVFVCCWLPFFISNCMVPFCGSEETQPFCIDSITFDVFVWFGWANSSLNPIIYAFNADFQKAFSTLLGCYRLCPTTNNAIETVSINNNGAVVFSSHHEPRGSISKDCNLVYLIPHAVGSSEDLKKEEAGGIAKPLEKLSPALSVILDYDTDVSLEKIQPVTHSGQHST
UniProt P61169, whole entry: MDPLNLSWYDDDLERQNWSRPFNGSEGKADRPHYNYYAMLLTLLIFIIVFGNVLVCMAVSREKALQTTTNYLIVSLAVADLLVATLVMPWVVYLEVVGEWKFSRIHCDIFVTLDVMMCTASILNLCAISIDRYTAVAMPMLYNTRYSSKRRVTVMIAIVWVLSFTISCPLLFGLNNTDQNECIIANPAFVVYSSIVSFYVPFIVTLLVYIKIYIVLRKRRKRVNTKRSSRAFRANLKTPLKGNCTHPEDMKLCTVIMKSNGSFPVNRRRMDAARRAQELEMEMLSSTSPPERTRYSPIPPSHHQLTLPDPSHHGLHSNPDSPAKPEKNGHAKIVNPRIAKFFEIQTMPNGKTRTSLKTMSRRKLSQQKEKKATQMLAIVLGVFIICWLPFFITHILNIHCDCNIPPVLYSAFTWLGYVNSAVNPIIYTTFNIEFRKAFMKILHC

According to ChEMBL document CHEMBL1135440, “(+)-Dinapsoline: an efficient synthesis and pharmacological profile of a novel dopamine agonist” (J Med Chem, 2002):

Experiments:
[1] = target: D(1A) dopamine receptor (Rattus norvegicus, UniProt P18901); assay: In vitro inhibition of [125I]SCH-23982 binding to Dopamine receptor D1 of rat striatal membrane
[2] = target: D(2) dopamine receptor (Rattus norvegicus, UniProt P61169); assay: In vitro inhibition of [125I]7-OH-PIPAT binding to Dopamine receptor D2 of rat striatal membrane

IC50 [1] [nM] | IC50 [2] [nM] | SMILES
5300 | 1500 | Oc1ccc2c(c1O)Cc1cccc3c1[C@@H]2CNC3
33 | 38 | Oc1ccc2c(c1O)Cc1cccc3c1[C@H]2CNC3
67 | 56 | Oc1ccc2c(c1O)Cc1cccc3c1C2CNC3 (racemic)
